Data from ChEMBL document CHEMBL1914282 (J Med Chem, 2011).
Calls of active or inactive are those of the source. No cut-off for these calls is given here.

By UniProt entry, the sequences of proteins in these tests, tags left out. Where a name states a change or a piece, a line headed by the entry shows the natural chain unless it says otherwise.
UniProt Q9HC97: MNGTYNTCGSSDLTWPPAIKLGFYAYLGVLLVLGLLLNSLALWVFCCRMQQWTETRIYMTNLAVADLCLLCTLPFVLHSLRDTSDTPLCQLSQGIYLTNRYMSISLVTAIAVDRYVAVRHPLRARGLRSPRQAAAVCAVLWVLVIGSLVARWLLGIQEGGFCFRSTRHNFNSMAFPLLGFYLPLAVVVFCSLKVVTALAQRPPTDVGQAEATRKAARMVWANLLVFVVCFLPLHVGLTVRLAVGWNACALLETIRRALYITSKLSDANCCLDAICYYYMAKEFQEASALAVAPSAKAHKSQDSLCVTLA

Biological target: G-protein coupled receptor 35 (Homo sapiens, UniProt Q9HC97)
Assay: Agonist activity at GPR35 in human HT-29 cells assessed as receptor internalization at 10 uM after 1 hr by fluorescence confocal imaging
Assay type: functional, cell-based

- Activity: inactive
SMILES: CCOC(=O)c1sc2c(Br)csc2c1C
